Test results published in article PMC9082844 (Journal of Biomedical Science, 2022).

Sequences of proteins named here, by UniProt entry; tags and fusion partners are left off.
UniProt O75164, whole entry: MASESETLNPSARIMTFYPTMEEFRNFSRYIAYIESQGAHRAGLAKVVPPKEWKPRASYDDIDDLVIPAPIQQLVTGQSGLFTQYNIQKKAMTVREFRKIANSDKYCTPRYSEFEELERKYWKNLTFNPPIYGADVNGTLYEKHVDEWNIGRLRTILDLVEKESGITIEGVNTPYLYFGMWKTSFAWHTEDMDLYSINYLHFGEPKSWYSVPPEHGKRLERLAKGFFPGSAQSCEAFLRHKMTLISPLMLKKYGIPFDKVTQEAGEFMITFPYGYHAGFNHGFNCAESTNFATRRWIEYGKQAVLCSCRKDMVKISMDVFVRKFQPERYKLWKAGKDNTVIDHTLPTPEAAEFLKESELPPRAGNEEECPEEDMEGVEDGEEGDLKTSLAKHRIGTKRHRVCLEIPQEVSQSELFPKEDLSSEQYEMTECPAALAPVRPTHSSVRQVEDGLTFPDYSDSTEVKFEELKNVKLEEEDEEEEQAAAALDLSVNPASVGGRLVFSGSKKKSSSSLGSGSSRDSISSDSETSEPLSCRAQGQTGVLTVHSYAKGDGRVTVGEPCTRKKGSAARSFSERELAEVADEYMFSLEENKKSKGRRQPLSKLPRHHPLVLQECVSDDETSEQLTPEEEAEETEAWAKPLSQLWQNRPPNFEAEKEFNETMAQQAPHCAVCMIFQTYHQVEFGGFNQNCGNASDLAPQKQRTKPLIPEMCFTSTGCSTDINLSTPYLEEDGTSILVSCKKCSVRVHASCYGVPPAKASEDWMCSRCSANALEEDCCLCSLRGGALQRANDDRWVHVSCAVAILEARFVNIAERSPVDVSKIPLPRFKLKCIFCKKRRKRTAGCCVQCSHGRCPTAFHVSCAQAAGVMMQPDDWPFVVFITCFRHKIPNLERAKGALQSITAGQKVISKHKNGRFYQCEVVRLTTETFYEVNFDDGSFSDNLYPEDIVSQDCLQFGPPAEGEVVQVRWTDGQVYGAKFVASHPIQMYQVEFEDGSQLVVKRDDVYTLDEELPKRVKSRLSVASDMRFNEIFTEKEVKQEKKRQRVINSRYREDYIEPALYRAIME

Molecular target: KDM4A (Homo sapiens, UniProt O75164)
Assay: FDH-coupled demethylase assay, KDM4A
Type: biochemical
Settings: Table S2; means of three independent dose-response curves

Q: O=C(c1cccc(O)c1O)N1CCN(c2ccccc2)CC1 was tested. Which IC50 did it give?
A: 4.27 µM

Q: Which IC50 does the source give for O=C(c1cccc(O)c1O)N1CCN(c2cccc(C(F)(F)F)c2)CC1 here?
A: 8.71 µM

Q: Which IC50 does the source give for O=C(c1ccc(O)c(O)c1)N1CCN(c2cccc(Cl)c2)CC1 here?
A: 5.6 µM

Q: O=C(c1cccc(O)c1O)N1CCN(c2cccc(Cl)c2)CC1 was tested. Which IC50 did it give?
A: 4.48 µM

Q: For O=C(c1cccc(O)c1O)N1CCN(c2ccc(Cl)c(Cl)c2)CC1, which IC50 is on record?
A: 4.33 µM

Q: For COc1cccc(C(=O)N2CCN(c3ccc(Cl)cc3)CC2)c1O, which IC50 is on record?
A: > 10 µM

Q: How did the IC50 turn out when O=C(c1ccc(O)c(O)c1O)N1CCN(c2cccc(Cl)c2)CC1 was run?
A: 5.03 µM

Q: With O=C(c1cc(O)c(O)c(O)c1)N1CCN(c2cccc(Cl)c2)CC1 as the compound, how does the IC50 read?
A: 2.21 µM

Q: Which IC50 does the source give for O=C(c1cccc(O)c1O)N1CCN(c2ccc(Cl)cc2)CC1 here?
A: 5.78 µM

Q: How did the IC50 turn out when O=C(O)c1cc(C(=O)N2CCN(c3cccc(Cl)c3)CC2)ccc1O was run?
A: > 10 µM

Q: For Cc1cccc(N2CCN(C(=O)c3cccc(O)c3O)CC2)c1C, which IC50 is on record?
A: 6.7 µM

Same assay, conditions: Table S3; means of three independent dose-response curves

Q: O=C(N/N=C/c1ccc(O)c(O)c1O)c1ccccn1 was tested. Which IC50 did it give?
A: 1.12 µM

Q: For O=C(N/N=C/c1ccc(O)c(O)c1O)c1ccccc1, which IC50 is on record?
A: 1.26 µM

Q: How did the IC50 turn out when O=C(N/N=C/c1ccc(O)c(O)c1O)c1ccncc1 was run?
A: 2.16 µM

Q: O=C(N/N=C/c1ccc(O)c(O)c1)c1ccncc1 was tested. Which IC50 did it give?
A: 1.27 µM

Q: For O=C(N/N=C/c1cccc(O)c1O)c1cccs1, which IC50 is on record?
A: 1.9 µM

Q: How did the IC50 turn out when O=C(N/N=C/c1cccc(O)c1O)c1ccccn1 was run?
A: 1.49 µM

Q: How did the IC50 turn out when O=C(N/N=C/c1cccc(O)c1O)c1ccncc1 was run?
A: 0.86 µM

Same assay, conditions: Table S4; means of three independent dose-response curves

Q: How did the IC50 turn out when O=C/C=C/c1ccc(O)c(O)c1 was run?
A: 0.92 µM

Q: How did the IC50 turn out when O=Cc1cccc(O)c1O was run?
A: 2.79 µM
